Earlier results in US4668705A, “Sebosuppressive preparations containing alkoxyaryl alkanols” (Henkel Kommanditgesellschaft auf Aktien, priority 1983, dated 1987).

Tested on: seborrhea of the scalp
Conditions: after prolonged use; prior art; cited from earlier work

For mercury, the “side effects of known additives” value is listed as “frequently produce side effects after prolonged use”.
